Data published in ChEMBL document CHEMBL3352185, “Design, synthesis, and antibacterial properties of dual-ligand inhibitors of acetyl-CoA carboxylase” (2014).

Tests used:
Pseudomonas aeruginosa = details: PAO1
Staphylococcus aureus [1] = details: ATCC 29213
Staphylococcus aureus [2] = details: ATCC 29213; remark: listed apart in the source

Measured: MIC

GENTAMICIN
0.5 µg/mL: all assays above
